Drawing on PubChem BioAssay (NCI), this text covers growth for 15 compounds.

Among the test systems are NCI/ADR-RES ovarian; T-47D breast; BT-549 breast; MDA-MB-435 melanoma; SW-620 colon; MCF7 breast; HCT-116 colon; HCC-2998 colon; KM12 colon.
Holding throughout (assay): NCI-60 one-dose screen, 48 h (100 = growth as untreated, 0 = no growth, -100 = all killed)
Common to all, as to details: 10 µM unless noted

Values joined by “and” are separate entries in the source; they are usually repeats but may differ in a detail not shown here. Equal values may be shown once. Only a part is listed here, and it is no random draw.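 How to read the values: 0–100, growth inhibition (40 = 60% inhibited); 0, no net growth; -100 to 0, cell death (-40 = 40% of starting cells died; -100 = all dead).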 Active and inactive are the calls of the source. How the source made its calls: active means growth percent below 10; inactive means the rest.

Consider `O=C(Nc1ccc([N+](=O)[O-])cc1)N(CCBr)CCBr`, for which the growth is inactive: 101% in the experiment with NCI/ADR-RES ovarian; inactive: 101% in the experiment on T-47D breast; inactive: 97.7% in the experiment with BT-549 breast; inactive: 94.5% in the experiment on MDA-MB-435 melanoma; inactive: 106% in the experiment on SW-620 colon; inactive: 95.8% in the experiment with MCF7 breast. Also, the growth was inactive: 103% in the experiment on HCT-116 colon, inactive: 97.1% in the experiment on HCC-2998 colon and inactive: 103% with KM12 colon.

On to `COC(=O)c1ccc(N2CCOP2(=O)Cl)cc1O` (centres undefined), for which the growth in the experiment on NCI/ADR-RES ovarian is inactive: 103%; in the experiment on T-47D breast, inactive: 107%; in the experiment on BT-549 breast, inactive: 83.6%; in the experiment with MDA-MB-435 melanoma it was inactive: 99.9%; in the experiment with SW-620 colon it was inactive: 112%; with MCF7 breast it was inactive: 96.7%. Moreover, the growth with HCT-116 colon was inactive: 99.4%; in the experiment with KM12 colon, inactive: 111%.

`CN(CCCl)/N=N/c1nc2c([nH]1)c(=O)n(C)c(=O)n2C`: the growth was inactive: 103% in the experiment with NCI/ADR-RES ovarian; inactive: 84.1% in the experiment with T-47D breast; inactive: 85.4% in the experiment with BT-549 breast; inactive: 99.4% in the experiment with MDA-MB-435 melanoma; inactive: 102% in the experiment on SW-620 colon; inactive: 92.9% in the experiment with MCF7 breast. Also, the growth is inactive: 90.7% with HCT-116 colon, inactive: 95.6% with HCC-2998 colon and inactive: 99.8% in the experiment on KM12 colon.

As to `COc1ccc(C(=O)N(CCCl)CCCl)cc1OC`, the growth in the experiment on NCI/ADR-RES ovarian is inactive: 105%; with T-47D breast, inactive: 95.5%; in the experiment on BT-549 breast, inactive: 105%; with MDA-MB-435 melanoma, inactive: 105%; in the experiment on SW-620 colon, inactive: 91.8%; with MCF7 breast, inactive: 79.1%. The values for the growth in the experiment on HCT-116 colon, in the experiment with HCC-2998 colon and with KM12 colon were inactive: 100%, inactive: 93.7% and inactive: 107%, respectively.

Consider `ClCCN1CCc2ccccc2C1`, for which the growth was inactive: 101% in the experiment on NCI/ADR-RES ovarian; inactive: 95.8% in the experiment on T-47D breast; inactive: 96.6% in the experiment with BT-549 breast; inactive: 104% in the experiment on MDA-MB-435 melanoma; inactive: 94.7% in the experiment with SW-620 colon; inactive: 96.2% with MCF7 breast. The growth in the experiment with HCT-116 colon is inactive: 94.9%; with HCC-2998 colon, inactive: 97.4%; with KM12 colon it was inactive: 105%.

`Cc1cccc(Nc2c([N+](=O)[O-])cc([N+](=O)[O-])cc2[N+](=O)[O-])c1`: the growth is inactive: 92.9% in the experiment with NCI/ADR-RES ovarian; inactive: 60.8% in the experiment with T-47D breast; inactive: 104% in the experiment on BT-549 breast; inactive: 101% in the experiment on MDA-MB-435 melanoma; inactive: 101% in the experiment with SW-620 colon; inactive: 68% in the experiment with MCF7 breast. Besides, the figures for the growth in the experiment with HCT-116 colon, with HCC-2998 colon and with KM12 colon were inactive: 79.7%, inactive: 104% and inactive: 93.2%, respectively.

As for `ClCCN1c2ccccc2Oc2ccccc21`, the growth is inactive: 106% with NCI/ADR-RES ovarian; inactive: 99.2% with T-47D breast; inactive: 110% in the experiment with BT-549 breast; inactive: 100% in the experiment with MDA-MB-435 melanoma; inactive: 99.4% in the experiment on SW-620 colon; inactive: 90.7% in the experiment with MCF7 breast. Further, the growth in the experiment with HCT-116 colon is inactive: 104%; in the experiment on HCC-2998 colon it was inactive: 97.5%; in the experiment with KM12 colon, inactive: 101%.

For the compound `CC(=O)Nc1ccc([As](=O)(O)O)c(O)c1`, the growth with NCI/ADR-RES ovarian was inactive: 109%; in the experiment with T-47D breast it was inactive: 94.9%; with BT-549 breast, inactive: 84.9%; with MDA-MB-435 melanoma, inactive: 101%; in the experiment on SW-620 colon it was inactive: 98.8%; with MCF7 breast it was inactive: 90.6%. The growth in the experiment on HCT-116 colon was inactive: 107%; in the experiment with HCC-2998 colon it was inactive: 106%; with KM12 colon it was inactive: 106%.

For the compound `Cn1c(COc2ccc([N+](=O)[O-])cc2[N+](=O)[O-])cnc1[N+](=O)[O-]`, the growth was inactive: 95.1% in the experiment with NCI/ADR-RES ovarian; inactive: 92.7% in the experiment on T-47D breast; inactive: 90.5% with BT-549 breast; inactive: 95.3% in the experiment with MDA-MB-435 melanoma; inactive: 72.2% in the experiment with SW-620 colon; inactive: 92.5% in the experiment with MCF7 breast. Further, the growth with HCT-116 colon was inactive: 98.4%; with HCC-2998 colon it was inactive: 95.2%; with KM12 colon, inactive: 104%.

For the compound `O=[As]1(O)c2ccccc2-c2ccccc21`, the growth with NCI/ADR-RES ovarian is inactive: 93%; with T-47D breast it was inactive: 110%; in the experiment on BT-549 breast it was inactive: 111%; with MDA-MB-435 melanoma it was inactive: 110%; in the experiment on SW-620 colon, inactive: 106%; in the experiment on MCF7 breast it was inactive: 97.8%. Besides, the values for the growth with HCT-116 colon, with HCC-2998 colon and in the experiment on KM12 colon were inactive: 89.5%, inactive: 140% and inactive: 109%, respectively.

Turning to `O=[N+]([O-])N1CCCS1(=O)=O`, the growth is inactive: 105% in the experiment on NCI/ADR-RES ovarian; inactive: 91.1% in the experiment on T-47D breast; inactive: 114% in the experiment with BT-549 breast; inactive: 107% with MDA-MB-435 melanoma; inactive: 109% in the experiment on SW-620 colon; inactive: 102% in the experiment with MCF7 breast. Besides, the growth was inactive: 97.9% in the experiment with HCT-116 colon, inactive: 105% in the experiment on HCC-2998 colon and inactive: 102% in the experiment on KM12 colon.

In the case of `CCOP(=O)(CCBr)OCC`, the growth with NCI/ADR-RES ovarian was inactive: 113% and inactive: 105%; with T-47D breast, inactive: 108% and inactive: 96.4%; in the experiment with BT-549 breast, inactive: 100% and inactive: 106%; with MDA-MB-435 melanoma, inactive: 96.3% and inactive: 95.1%; with SW-620 colon it was inactive: 100% and inactive: 98.1%; in the experiment on MCF7 breast it was inactive: 86.8% and inactive: 93.4%. Also, the growth in the experiment with HCT-116 colon was inactive: 107% and inactive: 103%; in the experiment with HCC-2998 colon it was inactive: 114% and inactive: 105%; with KM12 colon it was inactive: 104% and inactive: 108%.

On to `O=[N+]([O-])c1cc(Cl)c(O)c([N+](=O)[O-])c1`, for which the growth with NCI/ADR-RES ovarian is inactive: 115%; with T-47D breast, inactive: 94.5%; in the experiment on BT-549 breast, inactive: 105%; in the experiment on MDA-MB-435 melanoma, inactive: 108%; in the experiment on SW-620 colon, inactive: 102%; with MCF7 breast, inactive: 103%. For the same compound, the figures for the growth with HCT-116 colon, in the experiment on HCC-2998 colon and in the experiment with KM12 colon were inactive: 97.3%, inactive: 113% and inactive: 101%, respectively.

On to `O=[N+]([O-])c1cccc(Oc2ccc([N+](=O)[O-])cc2[N+](=O)[O-])c1`, for which the growth with NCI/ADR-RES ovarian is inactive: 17.2%; in the experiment with T-47D breast, inactive: 38.7%; in the experiment with BT-549 breast, inactive: 30.1%; in the experiment on MDA-MB-435 melanoma, active: -56.7%; in the experiment with SW-620 colon, inactive: 12%; in the experiment with MCF7 breast, inactive: 12.5%. For the same compound, the values for the growth in the experiment with HCT-116 colon, in the experiment with HCC-2998 colon and in the experiment with KM12 colon were active: 6.58%, inactive: 50.7% and active: 0.158%, respectively.

In the case of `NCCc1ccc(N(CCCl)CCCl)cc1`, the growth was inactive: 73.6% in the experiment on NCI/ADR-RES ovarian; inactive: 57.2% with T-47D breast; inactive: 81% with BT-549 breast; inactive: 66.2% with MDA-MB-435 melanoma; inactive: 60.7% in the experiment with SW-620 colon; inactive: 36.7% in the experiment on MCF7 breast. Further, the growth was inactive: 65.1% in the experiment with HCT-116 colon, inactive: 88.1% with HCC-2998 colon and inactive: 89.1% in the experiment with KM12 colon.
